Results: patent publication US20060094649A1

Tests used:
Assay in all cases: competition with labeled probe peptide, purified HLA class I
[1] = molecular target: HLA-B*1801 (human)
[2] = molecular target: HLA-B*4501 (human)
[3] = molecular target: HLA-B*4001 (human)

Row | IC50 [1] | IC50 [2] | IC50 [3] | Substance
1 | 17.7 µM | 15.1 µM |  | SEQ ID NO 717, 7-mer of MAGE2 at position 234 (printed as WEELSML) (peptide)
2 | 8.29 µM |  | 6.58 µM | SEQ ID NO 718, 7-mer of MAGE2 at position 252 (printed as WEELSML) (peptide)
